According to patent publication US12234237B2, “Folate salts” (priority 2018, dated 2025):

Assay: Solubility of the folate salt in organic (apolar) solvents at 20° C.
Procedure: Solubility has been determined at 20° C. Apolar solvents or mixtures thereof are for instance glycerol, methanol, ethanol, 1-propanol, 2-propanol and dimethylsulfoxid (DMSO). Apolar solvents are understood as dry solvents, that is without any water content. Apolar solvents may be pure solvents, comprising only one type of apolar solvent or it may be a mixture of at least two of the aforementioned apolar solvents. Polarity is in comparison to the polarity of water.
A high degree of crystallinity means that the crystalline content of the folate salt is higher than 40% based on the total amount of the folate salt.

5-Methyl-(6S)-tetrahydrofolic acid di Choline salt [L-MTHF di Choline]
Solubility in 1-Propanol (1-propanol, 20° C., based on total weight of the solution): 0.2% w/w | Solubility in DMSO (DMSO, 20° C., based on total weight of the solution): 31.3% w/w | Solubility in mixtures of organic solvents, highly crystalline salt (ethanol with 5 weight-% methanol or glycerol, highly crystalline salt, based on total weight of the solution): up to 25 weight-% | Solubility in Ethanol (ethanol, 20° C., based on total weight of the solution): 0.3% w/w | Solubility in ethanol, highly crystalline salt (ethanol, high crystalline content, based on total weight of the solution): 0.3 weight-% | Solubility in ethanol, high amorphous content (ethanol, salt at a high amorphous content): 38.8 weight-% | Solubility in Glycerol (glycerol, 20° C., based on total weight of the solution): 24.1% w/w | Solubility in Methanol (methanol, 20° C., based on total weight of the solution): 38.7% w/w
